## Yeast mating assay 2: variants of the scFv Ab-95

The measurements come from Engelhart et al. 2022 (doi:10.1038/s41597-022-01779-4) through the FLAb antibody collection.

Target peptide (SARS-CoV-2 spike, HR2 region): PDVDLGDISGINAS

Each scFv is VH, three GGGGS repeats, VL, as in the parent Ab-95, and differs from it in the CDRs of the light chain only.
VH: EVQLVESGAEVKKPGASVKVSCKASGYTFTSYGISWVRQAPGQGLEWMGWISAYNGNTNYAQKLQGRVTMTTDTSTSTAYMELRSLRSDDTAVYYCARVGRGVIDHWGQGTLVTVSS
VL: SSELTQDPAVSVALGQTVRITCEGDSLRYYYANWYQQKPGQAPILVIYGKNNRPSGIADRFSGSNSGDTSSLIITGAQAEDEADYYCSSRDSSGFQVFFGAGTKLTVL

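In library AAYL52, one, two or three CDR residues were substituted; doubles and triples were drawn at random. The scFvs were displayed on barcoded MATa yeast, the peptide on MATalpha yeast. After mating in shaken culture at 30 °C for 16 h, diploids were selected and their barcode pairs sequenced. Each replicate has its own calibration line, from reference interactions of the BCL2 family. Each pool was mated in three replicate cultures.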

Changes read parent residue, position, new residue, counted from the first residue of the VL shown. Every variant below is changed at Y30 of the VL (sequential numbering). Affinities are written as log10 Kd with Kd in nM; a lower number is a better binder. A mean of the replicates is given; it leaves out those without a signal. "no signal" marks a missing value. The strain was present, yet no cells mated with the target were sequenced in any replicate, which points to weak or no binding. Three control strains display no target. For library AAYL52, 28% of the pairings with them gave a signal, with a median of 3.91 and one signal in twenty below 2.90, so weak values seen in few replicates may be background.

| changes | log10 Kd (nM), mean | seen in |
|---|---|---|
| Y30P D91Y F95K | no signal | 0 of 3 |
| Y30W N52G D91V | 2.54 | 3 of 3 |
| L27T Y30K V97C | 3.27 | 2 of 3 |
| Y30A | 0.70 | 3 of 3 |
| Y30V P54D Q96L | 2.28 | 3 of 3 |
| G24F Y30G S93N | 1.70 | 3 of 3 |
| Y30T R90D Q96V | 3.34 | 3 of 3 |
| G24W Y30I S55K | 2.57 | 3 of 3 |
| Y30I S88K | 3.43 | 3 of 3 |
| G24N Y30E G94F | 2.91 | 3 of 3 |
| Y30V G49V F95K | 5.29 | 1 of 3 |
| Y30F P54F R90P | 3.30 | 2 of 3 |
| L27T Y30F Y31P | 2.79 | 3 of 3 |
| L27Q R28E Y30W | 3.48 | 2 of 3 |
| D25I Y30Q N33R | 2.57 | 3 of 3 |
| Y30M N51F P54H | 4.14 | 2 of 3 |
| Y30E S55L F98T | 1.66 | 3 of 3 |
| Y30C N51F | 3.74 | 3 of 3 |
| G24E Y30F F98M | 3.71 | 3 of 3 |
| Y30L S92W G94R | 2.75 | 3 of 3 |
| Y30F N52C S88P | 4.67 | 1 of 3 |
| Y30C N33K K50M | 2.99 | 3 of 3 |
| D25S Y30E | 1.05 | 3 of 3 |
| D25H Y29L Y30N | 1.16 | 3 of 3 |
| Y30V S88D V97I | 3.24 | 3 of 3 |
| Y30C A32K S93D | 3.38 | 2 of 3 |
| D25G Y30T | 1.24 | 3 of 3 |
| Y30G R53V R90P | 3.61 | 1 of 3 |
| Y30L R53C R90E | 3.59 | 1 of 3 |
| Y30V S55E F98N | 2.54 | 3 of 3 |
| Y30T G49P S89L | 4.18 | 3 of 3 |
| Y30F N33E F98Y | 4.10 | 1 of 3 |
| Y30G R53P S92W | 3.29 | 3 of 3 |
| S26E Y30N S92R | 0.83 | 3 of 3 |
| Y30K S93F G94F | 1.75 | 3 of 3 |
| G24I Y30W N33W | 4.07 | 3 of 3 |
| Y30N N52C R90D | 1.28 | 3 of 3 |
| Y30N S92L S93C | 1.07 | 3 of 3 |
| Y29G Y30M R90A | 3.56 | 2 of 3 |
| S26H Y30T P54W | 2.31 | 3 of 3 |
| Y29P Y30H F98P | 2.46 | 3 of 3 |
| Y30F P54R S88W | 3.69 | 2 of 3 |
| G24S Y30P N51I | 2.71 | 2 of 3 |
| Y29T Y30G Y31I | 0.79 | 3 of 3 |
| E23H Y30P | 1.93 | 2 of 3 |
| L27K Y30E F98I | 2.13 | 3 of 3 |
| Y30Q N33I F98Q | 3.96 | 2 of 3 |
| Y30T K50N | 1.10 | 3 of 3 |
| Y30Q A32H R53S | 2.90 | 2 of 3 |
| Y30C A32Q G49I | 3.68 | 2 of 3 |
| D25L Y30E G49L | 4.19 | 1 of 3 |
| Y30L K50V S92G | 3.26 | 3 of 3 |
| Y30Q R53M S92Q | 1.05 | 3 of 3 |
| E23V Y30W F95V | 3.03 | 3 of 3 |
| Y30G S88P V97F | 1.28 | 3 of 3 |
| Y30F R90V | no signal | 0 of 3 |
| Y30I R90H D91K | 2.98 | 3 of 3 |
| E23D R28Y Y30A | 1.91 | 3 of 3 |
| Y30T K50G F98G | 1.30 | 3 of 3 |
| Y29E Y30Q | 0.49 | 3 of 3 |
| Y30W S89N | 3.57 | 2 of 3 |
| R28E Y29F Y30E | 1.16 | 3 of 3 |
| Y30K N51H F98K | 3.56 | 2 of 3 |
| Y30S S92N V97F | 1.26 | 3 of 3 |
| Y30W S88G S93E | 3.58 | 3 of 3 |
| Y29I Y30T G94W | no signal | 0 of 3 |
| Y30I S93A V97D | 3.95 | 3 of 3 |
| Y30D N33C K50Q | 3.91 | 3 of 3 |
| Y30Q A32M S92M | 1.95 | 3 of 3 |
| Y30V A32Q F98A | no signal | 0 of 3 |

Excerpt, the final 11 entries:

changes,"log10 Kd (nM), mean",seen in
Y29E Y30Q,0.49,3 of 3
Y30W S89N,3.57,2 of 3
R28E Y29F Y30E,1.16,3 of 3
Y30K N51H F98K,3.56,2 of 3
Y30S S92N V97F,1.26,3 of 3
Y30W S88G S93E,3.58,3 of 3
Y29I Y30T G94W,no signal,0 of 3
Y30I S93A V97D,3.95,3 of 3
Y30D N33C K50Q,3.91,3 of 3
Y30Q A32M S92M,1.95,3 of 3
Y30V A32Q F98A,no signal,0 of 3